This assay concerns the target T1, Androgen receptor (Rattus norvegicus, UniProt P15207).
T1 sequence (P15207 whole entry): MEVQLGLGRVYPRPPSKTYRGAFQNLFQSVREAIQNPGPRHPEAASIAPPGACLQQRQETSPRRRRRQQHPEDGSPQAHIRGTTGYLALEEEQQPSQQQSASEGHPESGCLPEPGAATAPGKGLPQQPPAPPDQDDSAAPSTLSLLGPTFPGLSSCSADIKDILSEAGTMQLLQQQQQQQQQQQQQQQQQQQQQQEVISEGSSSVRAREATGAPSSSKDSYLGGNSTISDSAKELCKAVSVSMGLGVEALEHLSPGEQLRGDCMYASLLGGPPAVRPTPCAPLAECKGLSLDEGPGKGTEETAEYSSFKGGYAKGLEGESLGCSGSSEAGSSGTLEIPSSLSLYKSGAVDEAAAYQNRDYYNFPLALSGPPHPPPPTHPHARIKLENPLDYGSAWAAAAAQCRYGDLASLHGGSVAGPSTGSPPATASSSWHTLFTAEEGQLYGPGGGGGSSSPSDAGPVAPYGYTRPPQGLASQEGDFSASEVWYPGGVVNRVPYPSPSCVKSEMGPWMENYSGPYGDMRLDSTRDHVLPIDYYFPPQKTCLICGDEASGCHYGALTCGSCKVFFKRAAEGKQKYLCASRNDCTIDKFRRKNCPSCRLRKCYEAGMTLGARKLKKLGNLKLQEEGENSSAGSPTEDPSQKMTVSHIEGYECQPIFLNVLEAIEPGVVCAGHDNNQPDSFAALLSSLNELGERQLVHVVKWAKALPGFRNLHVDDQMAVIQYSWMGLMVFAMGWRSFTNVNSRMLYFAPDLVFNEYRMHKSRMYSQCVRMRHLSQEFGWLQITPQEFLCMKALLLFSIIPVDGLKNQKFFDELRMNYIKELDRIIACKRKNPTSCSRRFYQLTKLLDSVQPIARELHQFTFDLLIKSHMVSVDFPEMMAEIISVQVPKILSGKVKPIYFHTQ

In general, IC50 refers to the concentration needed to halve the response being measured. A low value points to higher potency. Molecule `O=C1CCC(=C2C[C@H]3[C@@H](C2)[C@H]2C[C@@H]3[C@@H](O)C2)CC1` gave an IC50 of 2.32 µM.

The values are drawn from ChEMBL document CHEMBL1133537, “Chiral derivatives of 2-cyclohexylideneperhydro-4,7-methanoindenes, a novel class of nonsteroidal androgen receptor ligand: synthesis, X-ray analysis, and biological activity” (J Med Chem, 2000).
